In PMC12155096 (International Journal of Molecular Sciences, 2025):
pIC50: −log10 of the molar value. Read-outs that look alike come from different tables or passages of the source.

Protein sequences, listed by entry. Tags and fused reporters are not part of them.
UniProt P08659, whole entry, looked up: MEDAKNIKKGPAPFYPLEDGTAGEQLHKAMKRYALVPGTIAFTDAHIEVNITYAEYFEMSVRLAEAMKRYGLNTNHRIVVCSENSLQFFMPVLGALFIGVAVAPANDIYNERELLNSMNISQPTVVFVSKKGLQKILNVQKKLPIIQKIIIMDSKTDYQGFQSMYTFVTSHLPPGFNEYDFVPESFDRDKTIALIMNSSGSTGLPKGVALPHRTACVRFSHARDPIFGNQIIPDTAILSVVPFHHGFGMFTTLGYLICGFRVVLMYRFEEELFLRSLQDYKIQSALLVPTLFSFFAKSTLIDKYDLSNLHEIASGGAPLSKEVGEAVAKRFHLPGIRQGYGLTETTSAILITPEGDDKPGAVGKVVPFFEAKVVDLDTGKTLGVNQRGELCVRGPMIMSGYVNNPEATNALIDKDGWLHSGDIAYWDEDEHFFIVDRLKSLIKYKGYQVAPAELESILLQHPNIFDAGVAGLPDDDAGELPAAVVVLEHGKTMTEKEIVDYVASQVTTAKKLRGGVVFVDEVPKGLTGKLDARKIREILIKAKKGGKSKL
UniProt P33261, whole entry, looked up: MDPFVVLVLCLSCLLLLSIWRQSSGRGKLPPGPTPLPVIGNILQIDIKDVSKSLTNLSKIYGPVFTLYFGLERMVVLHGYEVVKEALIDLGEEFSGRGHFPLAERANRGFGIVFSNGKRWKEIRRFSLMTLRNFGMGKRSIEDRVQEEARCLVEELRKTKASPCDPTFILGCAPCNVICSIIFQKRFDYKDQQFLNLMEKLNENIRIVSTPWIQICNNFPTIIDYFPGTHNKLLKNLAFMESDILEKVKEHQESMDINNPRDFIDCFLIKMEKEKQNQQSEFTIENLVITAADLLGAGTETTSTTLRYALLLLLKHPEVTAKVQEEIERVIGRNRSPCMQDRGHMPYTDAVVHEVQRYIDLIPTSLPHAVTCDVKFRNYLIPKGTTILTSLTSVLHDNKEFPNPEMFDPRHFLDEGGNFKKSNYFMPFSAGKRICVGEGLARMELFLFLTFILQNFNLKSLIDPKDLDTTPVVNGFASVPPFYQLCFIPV
UniProt P08684, whole entry, looked up: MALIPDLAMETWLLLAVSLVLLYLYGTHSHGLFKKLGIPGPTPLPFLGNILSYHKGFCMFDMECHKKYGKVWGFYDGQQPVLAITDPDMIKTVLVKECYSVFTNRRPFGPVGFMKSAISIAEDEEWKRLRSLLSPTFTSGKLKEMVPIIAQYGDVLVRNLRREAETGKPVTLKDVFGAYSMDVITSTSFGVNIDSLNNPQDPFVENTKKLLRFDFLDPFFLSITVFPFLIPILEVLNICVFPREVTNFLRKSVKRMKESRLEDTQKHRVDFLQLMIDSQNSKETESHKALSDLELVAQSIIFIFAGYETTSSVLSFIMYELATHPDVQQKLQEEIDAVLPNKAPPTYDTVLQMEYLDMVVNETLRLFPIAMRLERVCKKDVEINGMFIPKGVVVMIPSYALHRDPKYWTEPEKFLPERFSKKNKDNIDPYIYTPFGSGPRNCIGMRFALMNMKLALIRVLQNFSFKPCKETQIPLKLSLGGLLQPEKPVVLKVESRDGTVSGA
UniProt P10635, whole entry, looked up: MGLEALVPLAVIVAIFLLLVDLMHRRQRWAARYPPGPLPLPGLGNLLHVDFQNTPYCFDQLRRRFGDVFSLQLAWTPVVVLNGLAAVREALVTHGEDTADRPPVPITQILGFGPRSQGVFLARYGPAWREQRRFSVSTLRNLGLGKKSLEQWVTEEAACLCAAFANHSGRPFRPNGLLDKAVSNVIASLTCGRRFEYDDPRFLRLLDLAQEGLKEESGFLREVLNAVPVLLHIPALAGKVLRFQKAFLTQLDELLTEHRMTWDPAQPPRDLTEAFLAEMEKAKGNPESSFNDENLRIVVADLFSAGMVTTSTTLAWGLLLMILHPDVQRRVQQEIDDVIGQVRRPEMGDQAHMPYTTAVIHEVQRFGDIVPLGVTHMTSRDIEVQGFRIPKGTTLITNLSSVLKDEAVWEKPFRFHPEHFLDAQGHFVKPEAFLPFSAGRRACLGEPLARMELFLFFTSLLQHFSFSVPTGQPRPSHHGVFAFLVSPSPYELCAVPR
UniProt P05177, whole entry, looked up: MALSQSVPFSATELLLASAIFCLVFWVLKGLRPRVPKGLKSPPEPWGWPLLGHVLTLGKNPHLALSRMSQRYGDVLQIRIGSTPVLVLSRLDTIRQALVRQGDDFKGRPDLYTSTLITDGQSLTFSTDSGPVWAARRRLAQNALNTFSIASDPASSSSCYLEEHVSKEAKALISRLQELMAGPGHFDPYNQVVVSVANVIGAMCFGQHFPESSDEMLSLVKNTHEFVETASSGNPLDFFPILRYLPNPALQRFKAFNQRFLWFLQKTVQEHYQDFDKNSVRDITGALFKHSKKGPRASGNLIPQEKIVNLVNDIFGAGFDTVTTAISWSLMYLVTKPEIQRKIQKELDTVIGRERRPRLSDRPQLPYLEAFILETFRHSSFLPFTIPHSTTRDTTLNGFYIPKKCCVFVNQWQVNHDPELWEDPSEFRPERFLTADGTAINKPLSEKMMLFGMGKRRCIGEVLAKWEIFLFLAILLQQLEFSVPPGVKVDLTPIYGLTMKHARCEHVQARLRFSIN
UniProt P11712, whole entry, looked up: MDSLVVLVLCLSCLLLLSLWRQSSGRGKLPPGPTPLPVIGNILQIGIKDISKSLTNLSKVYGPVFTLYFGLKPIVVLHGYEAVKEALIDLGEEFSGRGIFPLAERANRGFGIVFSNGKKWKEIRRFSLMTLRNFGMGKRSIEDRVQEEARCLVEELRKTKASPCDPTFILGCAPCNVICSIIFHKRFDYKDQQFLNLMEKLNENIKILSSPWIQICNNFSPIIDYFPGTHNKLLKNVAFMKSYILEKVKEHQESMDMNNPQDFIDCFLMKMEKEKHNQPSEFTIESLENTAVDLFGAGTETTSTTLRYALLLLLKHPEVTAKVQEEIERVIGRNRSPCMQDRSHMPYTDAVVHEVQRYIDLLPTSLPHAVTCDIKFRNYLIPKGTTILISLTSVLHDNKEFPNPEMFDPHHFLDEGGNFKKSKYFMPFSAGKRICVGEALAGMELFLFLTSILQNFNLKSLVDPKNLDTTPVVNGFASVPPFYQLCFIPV

Legend:
[1] = target: Photinus pyralis (firefly) luciferase (Photinus pyralis, UniProt P08659); assay: Luciferase counter-screen assay; assay type: biochemical; conditions: mean ± standard deviation from three experiments
human CYP2C19 = human CYP2C19 (Homo sapiens, UniProt P33261); conditions: mean ± standard deviation from three experiments; for CYP2C19 Efficacy (in parenthesis): negative = inhibition; for pIC50: read-out: CYP2C19 IC50 (half-maximal inhibitory concentration)
CYP3A4 = CYP3A4 (Homo sapiens, UniProt P08684); conditions: mean ± standard deviation from three experiments; for CYP3A4 Efficacy (in parenthesis): negative = inhibition, positive = activation; for pIC50: read-out: CYP3A4 IC50 (half-maximal inhibitory concentration), qHTS, positive efficacy = activation; for AC50: read-out: CYP3A4 AC50 (half-maximal activity concentration)
human CYP2D6 = human CYP2D6 (Homo sapiens, UniProt P10635); conditions: mean ± standard deviation from three experiments; for CYP2D6 Efficacy (in parenthesis): negative = inhibition; for pIC50: read-out: CYP2D6 IC50 (half-maximal inhibitory concentration), qHTS
human CYP1A2 = human CYP1A2 (Homo sapiens, UniProt P05177); conditions: mean ± standard deviation from three experiments; for CYP1A2 Efficacy (in parenthesis): negative = inhibition; for pIC50: read-out: CYP1A2 IC50 (half-maximal inhibitory concentration)
human CYP2C9 = human CYP2C9 (Homo sapiens, UniProt P11712); conditions: mean ± standard deviation from three experiments; for CYP2C9 Efficacy (in parenthesis): negative = inhibition; for pIC50: read-out: CYP2C9 IC50 (half-maximal inhibitory concentration); for AC50: read-out: CYP2C9 AC50 (half-maximal activity concentration), activity call in words where no AC50
[2] = activity call in words where no AC50

SMILES | Luciferase IC50 (half-maximal inhibitory concentration) [1] | CYP2C19 Efficacy (in parenthesis) (human CYP2C19) | pIC50 (human CYP2C19; qHTS) | CYP3A4 Efficacy (in parenthesis) (CYP3A4) | pIC50 (CYP3A4) | CYP2D6 Efficacy (in parenthesis) (human CYP2D6) | pIC50 (human CYP2D6) | CYP1A2 Efficacy (in parenthesis) (human CYP1A2) | pIC50 (human CYP1A2; qHTS) | CYP2C9 Efficacy (in parenthesis) (human CYP2C9) | pIC50 (human CYP2C9; qHTS) | AC50 (CYP3A4; [2]) | CYP2D6 AC50 (half-maximal activity concentration) (human CYP2D6; [2]) | AC50 (human CYP2C9) | also measured
CC(C)OP(=S)(OC(C)C)SCCNS(=O)(=O)c1ccccc1 | Inactive | -143 ± 6% | 6.80 | -89 ± 1% | 6.22 | -88 ± 5% | 4.45 | -99 ± 4% | 4.90 | -97 ± 2% | 5.79 | – | – | – | –
CN(C(=O)Cc1cccc2occc12)[C@H]1CC[C@@]2(CCCO2)C[C@@H]1N1CCCC1 | Inactive | -104 ± 16% | 4.24 | -67 ± 7% | 4.70 | -78 ± 2% | 6.74 | -44 ± 13% | 4.31 | -77 ± 8% | 4.47 | – | – | – | –
Cc1cc([N+](=O)[O-])c(O)c([N+](=O)[O-])c1 | – | – | – | – | – | – | – | – | – | – | – | 28.4 µM | Inconclusive inhibitor | 35 µM | CYP2C19 AC50 (half-maximal activity concentration) (human CYP2C19; [2]): Inactive; CYP1A2 AC50 (half-maximal activity concentration) (human CYP1A2; [2]): Inconclusive inhibitor
CN(C(=O)Cc1ccc(Cl)c(Cl)c1)C1CCC2(CCCO2)CC1N1CCCC1 (stereo not shown) | Inactive | – | – | -77 ± 1% | – | -102 ± 7% | 5.38 | – | – | – | – | – | – | – | CYP2C19 IC50 (half-maximal inhibitory concentration) (human CYP2C19; qHTS): Inactive; CYP1A2 IC50 (half-maximal inhibitory concentration) (human CYP1A2; qHTS): Inactive; CYP2C9 IC50 (half-maximal inhibitory concentration) (human CYP2C9; qHTS): Inactive
Cc1cc([N+](=O)[O-])cc([N+](=O)[O-])c1O | – | – | – | – | – | – | – | – | – | – | – | 29.4 µM | Inconclusive inhibitor | 21.7 µM | AC50 (human CYP2C19; read-out: CYP2C19 AC50 (half-maximal activity concentration), activity call in words where no AC50): 63.7 µM; AC50 (human CYP1A2; read-out: CYP1A2 AC50 (half-maximal activity concentration), activity call in words where no AC50): 56.6 µM
Cc1cccc([N+](=O)[O-])c1[N+](=O)[O-] | – | – | – | – | – | – | – | – | – | – | – | – | – | – | CYP2C19 AC50 (half-maximal activity concentration) (human CYP2C19; words = activity call): Inconclusive inhibitor; AC50 (CYP3A4; words = activity call): 6.52 µM; CYP2D6 AC50 (half-maximal activity concentration) (human CYP2D6; words = activity call): Inconclusive inhibitor; CYP2C9 AC50 (half-maximal activity concentration) (human CYP2C9; words = activity call): Inactive
